Columns and labels:
Lewis lung carcinoma [1] = conditions: 200 mg/kg via gavage, two weeks, post-inoculation
Lewis lung carcinoma [2] = experiment: LLC Lewis tumor model, prophylactic administration; conditions: prophylactic administration one week, continued after inoculation

CN1CCN(Cc2ccc3nc4n(c(=O)c3c2)-c2ccc(F)cc2C4=O)CC1 [Embodiment Example 4]
in vivo Lewis lung carcinoma tumor growth compared to the control group (Lewis lung carcinoma [1]): significant inhibition | Lewis lung carcinoma tumor growth in vivo (Lewis lung carcinoma [2]): significantly inhibited

From patent US10059712B2, “N-benzyl tryptanthrin derivative, and preparation method and application thereof” (priority 2013, dated 2018)
